Patent US7341859B2, “ADH from Rhodococcus erythropolis” (Degussa AG, priority 2002, dated 2008)

System: NADH
Test: purified protein, by the assay type
Conditions: other: reduction reaction

Question: RE-ADH (Rhodococcus erythropolis) was tested. Which Km did it give?
Answer: 25 µM
